# Antibody variant affinities, Ab-14 heavy chain, assay B

Source: Li et al. 2023 (doi:10.1038/s41467-023-39022-2), MIT Lincoln Laboratory and A-Alpha Bio; data file from the FLAb repository.

Target: peptide PDVDLGDISGINAS, taken from heptad repeat 2 (HR2) of SARS-CoV-2 spike.

Ab-14 is the parent antibody, in scFv form: VH, then a 15-residue (Gly4Ser)3 linker, then VL. The light chain is unchanged in all variants.
VH: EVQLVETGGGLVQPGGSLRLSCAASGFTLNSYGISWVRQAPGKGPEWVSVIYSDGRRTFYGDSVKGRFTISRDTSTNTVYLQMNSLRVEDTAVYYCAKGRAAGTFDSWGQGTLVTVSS
VL: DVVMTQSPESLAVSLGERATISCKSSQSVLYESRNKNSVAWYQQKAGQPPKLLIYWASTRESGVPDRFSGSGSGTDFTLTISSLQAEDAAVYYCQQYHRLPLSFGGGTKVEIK

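Phage display of a naive human antibody library on the peptide gave the parent. This is the validation round: designs drawn from the data on random variants, tested in the same kind of assay. Group labels follow the data file (Ctrl: baseline library sampled from a position-specific scoring matrix, with some repeated check sequences; En: ensemble of fine-tuned language models; HC: hill climbing; Gen: genetic algorithm; Gibbs: Gibbs sampling; a sequence that several methods proposed may carry one label only). AlphaSeq pools MATa yeast showing the antibodies with MATalpha yeast showing the peptide. The frequency of each diploid, read from paired DNA barcodes, reflects how well the two displayed proteins bind. Read counts were normalised to the haploid input and turned into Kd by a linear fit to BCL2-family pairs of known affinity, for each replicate. Each pool was mated in six replicate cultures.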

Variants are written as CDR1, CDR2 and CDR3 of the heavy chain (limits as in the source). Parent: GFTLNSYGIS, VIYSDGRRTFYGDSVK, GRAAGTFDS.
This list holds designs with more than six substitutions.
Values are apparent Kd, the geometric mean of the replicates that gave a signal; lower means stronger binding.
A pair that was not seen in any replicate is written "nd"; this usually means weak binding, but a binder can also be missed.
Entries are sorted by rising average, undetected variants last.
As a blank, each scFv also met three strains without target: over all heavy chain designs, 1% of these pairings were detected, typically at 120 nM and seldom below 7.0 nM.
A sequence measured in both rounds can read differently, since the two assays cover different ranges.
Of ten entries with the parent sequence, four were seen in most replicates (averages 2.2 nM to 240 nM), three in one and three in none, so single entries are noisy.
In the paper, a design with two or fewer of six values counts as a poor binder.

GFDLNEYGIS / VIYADGQRTAYADSVK / GNTAGTFDT [En_Gen]: 220 pM (6 of 6 replicates).
GFNLDEYGIS / VIYADGQRTAYADSVK / GNVAGTFDV [En_Gen]: 240 pM (6 of 6 replicates).
GFDLNEYGIS / VIYADGKRTYYADSVK / GNVAGTFDI [En_Gen]: 280 pM (6 of 6 replicates).
GFDLNEYGIS / VIYADGMRTAYVDSVK / GENAGTFDI [En_Gen]: 290 pM (6 of 6 replicates).
GFDLNEYGIS / VIYADGVRTAYAESVK / GNVAGTFDV [En_Gen]: 290 pM (6 of 6 replicates).
GFDLNEYGIS / VIYADGMRTAYIDDVK / GNVAGTFDV [En_Gen]: 310 pM (6 of 6 replicates).
GFDLDEYGIS / VIYADGQRTAYADSVK / GANAGTFDV [En_Gen]: 340 pM (6 of 6 replicates).
GFDLNEYGIS / VIYADGRRTSYADSVK / GEEAGTFDV [En_HC]: 360 pM (6 of 6 replicates).
GFDLESYGIS / VIYADGRRTFYADKVK / GENAGTFDI [En_HC]: 420 pM (6 of 6 replicates).
GFDLNEYGIS / VIYADGMRTFYADSVK / GANAGTFDV [En_Gen]: 430 pM (6 of 6 replicates).
GFDLNEYGIS / VIYADGKRTFYDDSVK / GQLAGTFDL [En_HC]: 480 pM (6 of 6 replicates).
GFDLNEYGIS / VIYADGSRTFYSDSVK / GNQAGTFDK [En_HC]: 490 pM (6 of 6 replicates).
GFDLNEYGIS / VIYADGLRTFYADSVK / GEFAGTFDV [En_HC]: 630 pM (6 of 6 replicates).
GFDLDEYGIS / VIYADGQRTAYIDSVK / GENAGTFDV [En_Gen]: 640 pM (6 of 6 replicates).
GFDLDEYGIS / VIYADGSRTAYADSVK / GENAGTFDI [En_Gen]: 750 pM (6 of 6 replicates).
GFDLNEYGIS / VIYADGRRTAYIDSVK / GHAAGTFDQ [En_HC]: 800 pM (6 of 6 replicates).
GFDLNEYGIS / VIYADGFRTFYTDSVK / GEVAGTFDT [En_HC]: 810 pM (6 of 6 replicates).
GFQLEEYGIS / VIYADGSRTAYQDSVK / GKYKFSLVV [En_Gibbs]: 880 pM (6 of 6 replicates).
GFDLEEYGIS / VIYADGKRTAYADSVK / GENAGTFDV [En_Gen]: 1.4 nM (6 of 6 replicates).
GFDIDEYGIS / VIYADGRRTYYADSVK / GTNAGTFDV [En_HC]: 1.5 nM (6 of 6 replicates).
GFDLNEYGIS / VIYADGMRTGYTDSVK / GNEAGTFDS [En_HC]: 1.5 nM (3 of 6 replicates).
GFDLDEYGIS / VIYADGMRTAYADDVK / GNNAGTFDQ [En_Gen]: 2.6 nM (6 of 6 replicates).
GFDLDQYGIS / VIYADGRRTAYANDVK / GKYAGSMLS [En_Gibbs]: 8.4 nM (6 of 6 replicates).
GFDLNEYGIS / VIYADGVRTFYADSVK / GENAGTFDQ [En_Gen]: 18 nM (6 of 6 replicates).
GFKLDEYGIS / VIYADGRRTQYSDAFK / GTGDFDIEG [En_Gibbs]: 83 nM (6 of 6 replicates).
GFDIEEYGIS / VIYADGVRTVYADDVK / GIAKGSSLT [En_Gibbs]: 520 nM (4 of 6 replicates).
GFSLDEYGIS / VIYADGMRTAYAQTVK / GYNGSDGDK [En_Gibbs]: 640 nM (1 of 6 replicates).
GFDLDKYGIS / VIYADGRRKAYQTQFK / GGMTGTFDI [En_Gibbs]: 870 nM (1 of 6 replicates).
GFNLNEYGIS / VIYADGRRRAVIDQVK / GLVSFDFDL [En_Gibbs]: nd (0 of 6 replicates).
GFELQEYGIS / VIYADGMKQAYRDAVK / GGIAGNFMM [En_Gibbs]: nd (0 of 6 replicates).
GFEIEEYGIS / VIYADGQRSSYVDNVK / GKVDTVVMY [En_Gibbs]: nd (0 of 6 replicates).
GFDLNEYGIS / VIYADGKRYHYTDSVK / GGVVGKVLY [En_Gibbs]: nd (0 of 6 replicates).
GFDLDEYGIS / VIYADGKRSAYHDSFK / GQLGKVSIV [En_Gibbs]: nd (0 of 6 replicates).
GNDLSEYGIS / VIYADGIRTNYSQNVK / GTLGDVFTQ [En_Gibbs]: nd (0 of 6 replicates).
GFNIDEYGIS / VIYADGMRTFYSNRVK / GVVNGGTIS [En_Gibbs]: nd (0 of 6 replicates).
GFALNSYGIS / VIYSDGRRTFYGDAVK / GQAEDTPDW [Ctrl]: nd (0 of 6 replicates).

Excerpt, the final 6 entries:

With GFEIEEYGIS / VIYADGQRSSYVDNVK / GKVDTVVMY [En_Gibbs] the result was nd (0 of 6 replicates).
With GFDLNEYGIS / VIYADGKRYHYTDSVK / GGVVGKVLY [En_Gibbs] the result was nd (0 of 6 replicates).
With GFDLDEYGIS / VIYADGKRSAYHDSFK / GQLGKVSIV [En_Gibbs] the result was nd (0 of 6 replicates).
With GNDLSEYGIS / VIYADGIRTNYSQNVK / GTLGDVFTQ [En_Gibbs] the result was nd (0 of 6 replicates).
With GFNIDEYGIS / VIYADGMRTFYSNRVK / GVVNGGTIS [En_Gibbs] the result was nd (0 of 6 replicates).
With GFALNSYGIS / VIYSDGRRTFYGDAVK / GQAEDTPDW [Ctrl] the result was nd (0 of 6 replicates).